In US20210040485A1, “Elimination or Neutralization of Endogenous High Molecular Weight FGF-2 Increases Cardiac Resistance to Doxorubicin-Induced Damage” (University of Manitoba, priority 2018, published 2021):

Columns and labels:
[1] = test system: FGF2(WT), FGF2(−), FGF2(Hi), FGF2(Lo) mice; details: mouse, in vivo
[2] = test system: FGF2(WT), FGF2(−), FGF2(Hi), FGF2(Lo) mice; assay: In vivo model for acute Doxorubicin effects: mortality and body weight; set-up: species or system mouse; details: female FGF2(−) mice, 5-6 days post Dox
Source text: In vivo model for acute Doxorubicin effects.
In vivo model for acute cardiotoxic effects. […] Hearts were then collected for biochemical analyses.

Doxorubicin showed an HR [1] of 645 ± 73 beats/min and a mortality [2] of 10%.
